These results are taken from patent US8748462B2, “Spirocyclic GPR40 modulators” (Amgen Inc., priority 2008, dated 2014).

Protein sequences, listed by entry. Tags and fused reporters are not part of them.
UniProt O14842, whole entry: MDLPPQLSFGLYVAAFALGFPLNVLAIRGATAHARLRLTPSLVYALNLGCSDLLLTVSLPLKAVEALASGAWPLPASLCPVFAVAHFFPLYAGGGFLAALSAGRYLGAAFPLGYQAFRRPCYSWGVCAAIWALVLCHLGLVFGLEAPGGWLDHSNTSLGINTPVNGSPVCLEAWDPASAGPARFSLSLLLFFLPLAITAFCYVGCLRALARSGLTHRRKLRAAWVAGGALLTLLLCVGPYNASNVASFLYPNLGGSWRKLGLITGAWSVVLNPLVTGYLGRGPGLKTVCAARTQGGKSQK

In assay [1] the target is T1, human GPR40 (Homo sapiens, UniProt O14842). Nature of the assay: Cell-based aequorin assay. The note with it: read-out: Aequorin EC50; CHO cells stably transfected with GPR40 and aequorin; 0.01% HSA.
The target of assay [2] is T1, human GPR40. In words: Inositol phosphate accumulation assay. The class given is cell-based. The conditions noted are these: read-out: IP3 EC50; A9 cell line stably transfected with GPR40; 1 hour at 37° C.

Broadly, the EC50 is the concentration that produces a half-maximal response. Turning to `COc1ccc(F)c(-c2ccc(COc3ccc4c(c3)C3(CC4)C(C)C3C(=O)O)cc2C2CCCC2(C)C)c1` (single isomer, unassigned) [Example 142], the EC50 on human GPR40 [1] fell in the range of 100 to 1000 nM.

With `COc1ccc(F)c(-c2ccc(COc3ccc4c(c3)C3(CC4)C(C)C3C(=O)O)cc2C2CCCC2(C)C)c1` (single isomer, unassigned) [Example 141], the EC50 on human GPR40 [1] was in the range of 100 to 1000 nM.

In the case of `COc1ccc(F)c(-c2ccc(COc3ccc4c(c3)C3(CC4)C(C)C3C(=O)O)cc2C2CCCC2(C)C)c1` (single isomer, unassigned) [Example 144], the half-maximal effective concentration (EC50) was 100 to 1000 nM on human GPR40 [1] and 10 to 100 nM at human GPR40 [2].

For the compound `COc1ccc(F)c(-c2ccc(COc3ccc4c(c3)C3(CC4)C(C)C3C(=O)O)cc2C2CCCC2(C)C)c1` (single isomer, unassigned) [Example 143], the EC50 on human GPR40 [1] fell in the range of 1000 to 10000 nM.
